Test results as given in article PMC4032197 (Journal of Medicinal Chemistry, 2014).

Sequences of proteins named here, by UniProt entry; tags and fusion partners are left off. A change or cut given only in a name is not applied to a line headed by its entry.
UniProt P43116: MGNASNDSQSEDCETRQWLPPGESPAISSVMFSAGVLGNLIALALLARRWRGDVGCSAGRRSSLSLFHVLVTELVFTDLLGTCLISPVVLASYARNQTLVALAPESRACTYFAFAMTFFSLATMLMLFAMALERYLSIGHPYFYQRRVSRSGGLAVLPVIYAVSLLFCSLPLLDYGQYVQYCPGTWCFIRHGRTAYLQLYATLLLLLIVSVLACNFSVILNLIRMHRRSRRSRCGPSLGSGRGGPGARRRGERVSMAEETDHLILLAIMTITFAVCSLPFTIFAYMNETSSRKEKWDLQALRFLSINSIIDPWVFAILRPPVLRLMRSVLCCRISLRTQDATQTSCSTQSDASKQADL

Legend:
human EP2 receptors = human EP2 receptors (Homo sapiens, UniProt P43116)
C6 glioma cells = settings: in vitro therapeutic index
[1] = PK study in C57BL/6 mice; cited from earlier work

COc1cc(CCC(=O)NCCn2c(C)cc3ccccc32)cc(OC)c1OC [5v]
fold less EP2 potency in comparison to 5a (human EP2 receptors): 90 fold

Cc1cc(/C=C/C(=O)NCCn2c(C)cc3ccccc32)cc(C)c1F [5c]
therapeutic index CC50/KB(EP2) (C6 glioma cells): 108 000

COc1cc(/C=C/C(=O)NCCn2c(C(F)(F)F)cc3ccccc32)cc(OC)c1OC [5d, (E)-N-(2-(2-(Trifluoromethyl)-1H-indol-1-yl)ethyl)-3-(3,4,5-trimethoxyphenyl)acrylamide]
plasma half-life [1]: 1.7 h
